System: female Sprague Dawley rats
Experiment: Operant alcohol (10%) self-administration, FR2 schedule, 60-min sessions
Type: in vivo, rat
Settings: 0.3-3.0 mg/kg IP, combination vs single drugs
Experimental: Animals. A total of 10 female Sprague Dawley rats (Charles River, Wilmington, MA) were used for the alcohol self-administration studies. Separate groups of female rats (N=16) were used to assess the impact of vehicle (control, N=4), MG (N=4, 3.0 mg/kg), NTX (N=4, 3 mg/kg) and MG+NTX (N=4, 3.0 mg/kg/3.0 mg/kg) on locomotor activity in open field chambers. These same rats were used in the cFos immunohistochemistry study. Rats were initially housed 3-5 to a cage in polypropylene cages housed in circular towers (Animal Care Systems, Inc, Centennial, CO) located within a temperature- and humidity-controlled vivarium that was maintained on a 12:12 light/dark cycle (lights on at 6 AM). Rats weighed about 250-350 gm at the start of the experiment and were at least 100 days old. Food and water were available ad libitum throughout the study. […]
Statistical Analysis. The self-administration data were analyzed with ANOVAs to compare the two measures of appetitive responding (numbers of active lever presses and head entries) and the two measures of consummatory responding (numbers of reinforcers earned and estimated total alcohol intake in g/kg). […]

Structure (SMILES): O=C1CC[C@@]2(O)[C@H]3Cc4ccc(O)c5c4[C@@]2(CCN3CC2CC2)[C@H]1O5 [NTX, naltrexone]
- Alcohol self-administration overall, relative efficacy of drug conditions: least significant effects
